# Assay results: publication PMC12399242 (Acta Pharmaceutica Sinica. B, 2025)
# Target: WT HIV-1 RT (Human immunodeficiency virus type 1 group M subtype B, UniProt P03366)
# Test: Inhibition of WT HIV-1 RT polymerase activity
smiles,measurement,value
"Cc1cc(C#N)cc(C)c1Oc1nc(Nc2ccc(C#N)cc2)nc(N)c1Br [ETR, etravirine, reference compound]",IC50,0.03 ± 0.0046 µM
